Screening results: PubChem, National Center for Advancing Translational Sciences (NCATS)
Hits are enriched below; roughly 16% of the tested compounds scored in any of these assays.
miR-21 reporter = miR-21 reporter, rising signal | 340,000 tested, under 10 active | AID 2288 | HeLa miR-21 FLuc reporter, luciferase, 48 h | Potency, µM (titrated, usually from 38.3 µM); active = well fitted rising curve with a large enough effect; inconclusive = small, poorly fitted or top-dose-only effect; inactive = no such curve, though single readings can be large or run the other way;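 further: miR-21 action dims this reporter so a rising signal means less miR-21 action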
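HeLa cells endogenously expressing miR-21, stably carrying CMV-driven firefly luciferase with a downstream miR-21 binding site, 2000 cells/well. Titrations up to approximately 40 uM, 48 hours; luciferase luminescence read.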
TDP1 block = inhibitors of human tyrosyl-DNA phosphodiesterase TDP1; Q9NUW8; hit rate 0.28% among 350,000; Potency, µM (titrated, usually from 130 µM), most hits filed as inhibitors; recombinant TDP1, AlphaScreen DNA substrate cleavage; further: nearly all actives have a fitted effect of over 40% in size
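Recombinant human Tdp1 (E. coli-expressed, 1 nM final) preincubated with compounds 15 min at room temperature, then 5'-biotin/3'-phosphotyrosine-FITC DNA substrate (15 nM final) added for 5 min. AlphaScreen beads (10 ug/ml final) added 10 min; cleavage lowers signal.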
DT40 TDP1 CPT = growth inhibition of DT40 Tdp1-/-;hTDP1 cells with camptothecin (screen for TDP1 inhibitors); chicken DT40 Tdp1-/-;hTDP1 cells + 20 nM CPT, ATP luminescence, 48 h; hit rate 12% among 420,000; Potency, µM (series often up to 46.2 µM), hits mostly inhibitors; further: nearly all actives have a fitted effect of over 55% in size
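Chicken DT40 Tdp1-/- cells complemented with human TDP1, 400 cells/well, exposed to compounds plus 20 nM camptothecin for at least 48 h at 37 C; viability read as ATP content by CellTiter-Glo luminescence.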
DT40 TDP1 no CPT = qHTS for Inhibitors of human tyrosyl-DNA phosphodiesterase 1 (TDP1): qHTS in cells in absence of CPT | DT40 Tdp1-/- hTDP1 cells, no CPT, ATP luminescence, 48 h | Potency, µM (titrated, usually from 46.2 µM), usual class: inhibitors | hit rate 15% among 420,000 | AID 686978, 2013; further: nearly all actives have a fitted effect of over 55% in size
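Camptothecin absent (DMSO only). Human TDP1-complemented DT40 knockout cells, 400 cells/well, 37 °C for minimum 48 hr; ATP measured via CellTiter-Glo, 30 min dark incubation, luminescence.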
uPA surface inh = blocks generation of uPA at the cell surface; hit rate 0.31% among 330,000; cell surface uPA generation assay, qHTS; Potency, µM (top dose mostly 38.3 µM), hits mostly inhibitors; active means well fitted inhibition curve with a large enough effect; inconclusive means small, poorly fitted or top-dose-only effect; inactive means no such curve, though single readings can be large or run the other way; tested in mouse RAW 264.7 cells; further: nearly all actives have a fitted effect of over 55% in size
Hits are given with their value; - = inactive; ? = inconclusive; . = no result. Unless noted, the call rests on the fitted dose curve; in most records, active means well fitted curve in the direction sought with a large enough effect; inconclusive means small, poorly fitted or top-dose-only effect, or another doubt; inactive means no such curve, though single readings can be large; an effect the other way counts as inactive or inconclusive.

SMILES	miR-21 reporter	TDP1 block	DT40 TDP1 CPT	DT40 TDP1 no CPT	uPA surface inh
O=C(NCc1cccc(C(F)(F)F)c1)c1ccc[nH]1	-	.	-	-	-
COC(=O)c1ccccc1NC(=O)NCc1ccncc1	-	-	?	-	-
Nc1cc2c3c(cccc3c1)C(=O)N(CCN1CCCC1)C2=O	?	-	0.73µM	1.2µM	-
CCN(CC)CCN1C(=O)c2cccc3cc(N)cc(c23)C1=O	?	-	12µM	7.3µM	-
NC(=O)CN1CCN(CCN2C(=O)c3cccc4cccc(c34)C2=O)CC1	-	-	-	-	?
O=C1c2cccc3cc([N+](=O)[O-])cc(c23)C(=O)N1/N=C/c1ccc(O)cc1O	-	-	?	16µM	-
O=C1c2cccc3cc([N+](=O)[O-])cc(c23)C(=O)N1CCN1CCCC1	?	-	0.21µM	0.13µM	-
COc1cccc2sc(=NC(=O)CS(=O)(=O)c3ccc(F)cc3)n(C)c12	.	.	?	12µM	-
COc1cccc2sc(=NC(=O)CS(=O)(=O)c3ccccc3)n(C)c12	.	.	?	15µM	.
COc1cccc2sc(=NC(=O)CS(=O)(=O)c3ccc(Cl)cc3)n(C)c12	.	-	7.3µM	2.3µM	-
CCn1c(=NC(=O)CS(=O)(=O)c2ccc(C)cc2)sc2cccc(OC)c21	.	.	?	16µM	?
N=c1oc2cc(O)ccc2cc1C(=O)Nc1ccc(Br)cc1	-	.	?	?	-
COC(=O)CN(C#N)c1nc(NCc2ccccc2)nc(OC)n1	-	.	?	?	-
CC1(C)NC(=O)N(CC(O)COc2ccc(N3C(=O)c4ccccc4C3=O)cc2)C1=O (configuration not stated)	-	-	-	?	-
CCCCc1nc(NCCNC(=O)c2ccco2)c(C#N)c2c1CSC(C)(C)C2	-	-	29µM	23µM	-
CCCCc1nc(Cl)c(C#N)c2c1CSC(C)(C)C2	-	-	-	-	-
CCCCc1nc(NCCNC(=O)c2ccccc2)c(C#N)c2c1CSC(C)(C)C2	-	-	23µM	13µM	-
O=c1c2ccccc2c(C=Nc2ccc(Cl)cn2)c(O)n1-c1cc(Cl)ccc1N1CCOCC1	-	-	?	1.5µM	-
Cc1ccc(NC(=O)/C=C/c2ccc3c(c2)OCO3)nc1	-	-	-	-	-
CCOc1cc(/C=N/NC(=O)CCCC(=O)NC2CCCCC2)ccc1O	-	-	-	-	-
Nc1cc2[nH]c(=O)c3ccccc3c2cc1[N+](=O)[O-]	.	.	23µM	?	-
NS(=O)(=O)c1cccc2c1c([N+](=O)[O-])cc1[nH]c(=O)c(=O)[nH]c12	.	.	-	-	.
Cc1[nH]c2ccccc2c1CN1CCC(Cc2ccccc2)CC1	-	-	2.6µM	2.6µM	-
Cc1[nH]c2ccccc2c1CN1CCN(c2ccccn2)CC1	-	.	2.3µM	5.2µM	-
Cc1[nH]c2ccccc2c(=O)c1CN1CCCCC1	-	-	-	-	-
SMILES	miR-21 reporter	TDP1 block	DT40 TDP1 CPT	DT40 TDP1 no CPT	uPA surface inh
Cc1ccc(/C([O-])=C(/C(=S)NCc2ccccc2)[n+]2cccc(CO)c2)cc1[N+](=O)[O-]	-	-	-	-	-
CCc1cc[n+](C(C(=S)Nc2cccc(C)c2)=C([O-])c2ccc(C)c([N+](=O)[O-])c2)cc1	.	.	16µM	.	-
COc1ccc2[nH]cc(CCNc3cc(-c4cccc(C#N)c4)ncn3)c2c1	.	.	21µM	?	.
Cc1cnc(CNc2ncnc3ccc(-c4cccc(C#N)c4)cc23)cn1	.	-	?	?	.
COc1ccc2[nH]cc(CCNc3ncncc3-c3ccccc3CN(C)C)c2c1	.	-	-	-	.
COc1ccc2[nH]cc(CCNc3cc(-c4ccccc4OC)ncn3)c2c1	.	.	16µM	?	.
COc1ccc(CNc2ncnc3ccc(-c4ccccc4C#N)cc23)c(OC)c1	.	.	?	-	.
COc1ccc2[nH]cc(CCNc3ncnc4ccc(-c5ccccc5C#N)cc34)c2c1	.	-	?	18µM	.
COc1ccc2[nH]cc(CCNc3ncnc4ccc(-c5cccc(C#N)c5)cc34)c2c1	.	.	21µM	?	.
N#Cc1cccc(-c2cc(NCc3cccnc3)ncn2)c1	.	.	-	-	.
CC(NS(=O)(=O)c1ccc2[nH]c(=O)c(=O)[nH]c2c1)C(=O)O (configuration not stated)	-	-	-	-	-
